In PMC11946465:

T1: Finotonlimab
T1 chain 1: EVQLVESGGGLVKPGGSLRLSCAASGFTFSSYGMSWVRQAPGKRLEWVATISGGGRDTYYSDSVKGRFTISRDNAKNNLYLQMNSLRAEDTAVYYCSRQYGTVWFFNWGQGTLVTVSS
T1 chain 2: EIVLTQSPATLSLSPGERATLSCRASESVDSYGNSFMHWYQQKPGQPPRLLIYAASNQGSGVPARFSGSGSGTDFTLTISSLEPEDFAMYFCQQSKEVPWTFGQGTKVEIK


Target: T1, Finotonlimab
Assay: ELISA (mutation study, epitope mapping)
Conditions: chain shown with the change;; parent: est. 100; read off a plot

| Binder | percent of parent |
| --- | --- |
| PD-1 wt protein, Q15116 D29A; R30A (protein) LDSPAAPWNPPTFSPALLVVTEGDNATFTCSFSNTSESFVLNWYRMSPSNQTDKLAAFPEDRSQPGQDCRFRVTQLPNGRDFHMSVVRARRNDSGTYLCGAISLAPKAQIKESLRAELRVTERRAEVPTAHPSPSPRPAGQFQTLV | 100% |
| PD-1 wt protein, Q15116 N66A (protein) LDSPDRPWNPPTFSPALLVVTEGDNATFTCSFSNTSESFVLAWYRMSPSNQTDKLAAFPEDRSQPGQDCRFRVTQLPNGRDFHMSVVRARRNDSGTYLCGAISLAPKAQIKESLRAELRVTERRAEVPTAHPSPSPRPAGQFQTLV | 87% |
| PD-1 wt protein, Q15116 K78A (protein) LDSPDRPWNPPTFSPALLVVTEGDNATFTCSFSNTSESFVLNWYRMSPSNQTDALAAFPEDRSQPGQDCRFRVTQLPNGRDFHMSVVRARRNDSGTYLCGAISLAPKAQIKESLRAELRVTERRAEVPTAHPSPSPRPAGQFQTLV | 85% |

Results, then the binder that gave them:

| percent of parent | Binder |
| --- | --- |
| 35% | PD-1 wt protein, Q15116 D85A (protein) LDSPDRPWNPPTFSPALLVVTEGDNATFTCSFSNTSESFVLNWYRMSPSNQTDKLAAFPEARSQPGQDCRFRVTQLPNGRDFHMSVVRARRNDSGTYLCGAISLAPKAQIKESLRAELRVTERRAEVPTAHPSPSPRPAGQFQTLV |
| 100% | PD-1 wt protein, Q15116 E136A; R139A (protein) LDSPDRPWNPPTFSPALLVVTEGDNATFTCSFSNTSESFVLNWYRMSPSNQTDKLAAFPEDRSQPGQDCRFRVTQLPNGRDFHMSVVRARRNDSGTYLCGAISLAPKAQIKASLAAELRVTERRAEVPTAHPSPSPRPAGQFQTLV |
| 95% | PD-1 wt protein, Q15116 R30A (protein) LDSPDAPWNPPTFSPALLVVTEGDNATFTCSFSNTSESFVLNWYRMSPSNQTDKLAAFPEDRSQPGQDCRFRVTQLPNGRDFHMSVVRARRNDSGTYLCGAISLAPKAQIKESLRAELRVTERRAEVPTAHPSPSPRPAGQFQTLV |
